How the values were obtained:
[1] = in vivo; details: mouse, po, DL50/DE50 (therapeutical index), Table III
Description: The anticonvulsive effect was examined for tonic convulsions induced by bicuculline. The compounds of the invention were administrated orally at dosages of 10 and 100 mgr/kg, each to 5 mice, 3 hours before intravenous injection of bicuculline at the dosage of 0.6 mgr/kg. The number of mice protected against tonic convulsions and the number of dead mice were noted.
Amongst the substances according to the invention, 2-n-pentylaminoacetamideand its hydrochloride were more particularly studied. […] The hydrochloride was also administered intravenously. […] Table III also gives the therapeutical index (LD50/ED50).

[2] = in vivo; details: mouse, po

## O=C1NC(=O)C(c2ccccc2)(c2ccccc2)N1 [Na Diphenylhydantoin, reference compound]
[1]
  selectivity ratio: 122
[2]
  LD50: 320 mg/kg
